Assay results reported in publication PMC6988089 (Journal of the American Chemical Society, 2019).

Chains of the proteins cited; added tags and fusions are not shown. Lines headed by an entry give the natural chain unless they say otherwise; changes in a name come on top.
UniProt Q13185: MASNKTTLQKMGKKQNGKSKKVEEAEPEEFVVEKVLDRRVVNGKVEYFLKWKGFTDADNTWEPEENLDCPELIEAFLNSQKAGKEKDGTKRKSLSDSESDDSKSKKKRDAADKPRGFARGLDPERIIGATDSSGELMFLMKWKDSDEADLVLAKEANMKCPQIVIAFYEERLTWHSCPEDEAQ

Biological target: wild-type CBX3 (human, UniProt Q13185 1-183)
Assay: fluorescence polarisation

Kd: 12.2 ± 0.2 µM
Binder: ARTKQTARKSTGGKA (trimethyl-lysine at 9; tetramethylrhodamine (TAMRA) label, position not stated) [TAMRA-labeled H3K9me3 peptide]
